# Only some compounds are listed: those with a hit (about 2.4% of all), similar ones and a draw of the others.
# Rango release inh: inhibition of RanGTP-driven Rango-importin beta dissociation; Biochemical FRET Rango-importin beta, RanGTP-induced dissociation; Potency, µM (top dose mostly 46.1 µM), without a hit: top-dose activity change, negative = inhibition; actives 0.071% (n = 340,000); note: % of control where 0% means no effect; nearly all actives have a fitted effect of over 45% in size
#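 Compounds preincubate 5 min with complex of recombinant Rango and importin beta in PBS with 1 mM DTT. Ran (0.6 uM) loaded with 2 mM GTP plus 0.2 uM RCC1 starts dissociation; FRET is recorded 45 min later.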
# ClpP mod: qHTS Assay for Activators of ClpP. purified B. subtilis ClpP, FRET peptide cleavage, 20 min. Potency, µM (series often up to 57.5 µM), for inactives: top-dose activity change, negative = active. actives 1.9% (n = 340,000). AID 651965, 2013; active = well fitted falling curve with a large enough effect; inconclusive = small, poorly fitted or top-dose-only effect; inactive = no such curve, though single readings can be large or run the other way; note: the source files actives as falling curves though it sought activators and does not explain the sign; nearly all actives have a fitted effect of over 65% in size
#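 ClpP 10 microg/mL final, pH 8 Tris/KCl buffer with BSA, glycerol, Tween-20; compound pinned in; FRET-FV substrate; RT 20 min; Ex320/Em430; ΔFRET vs ADEP 5.8 microM, DMSO, no enzyme.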
# TSG101-PTAP inh: blocks PTAP/TSG101 interaction to inhibit HIV-1 budding; Q99816; Fluorescence polarization, FITC-PTAP peptide / Tsg101 binding; Potency, µM (titrated, usually from 115 µM), inactives show at the top dose activity change, negative = inhibition, hits mostly inhibitors; 340,000 tested, under 10 active; AID 493005; active = well fitted inhibition curve with a large enough effect in the main read-out, with a control signal flat, not every such curve was filed as active; inconclusive = small, poorly fitted or top-dose-only effect, or effect the other way, or a change in a side signal; inactive = no such curve, though single readings can be large or run the other way; note: % of control where 0% means no effect
#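 Compounds were pin-transferred onto Tsg101 binding domain (10 uM final) in HEPES pH 7.5 buffer, then FITC-PTAP peptide was added at 50 nM final. After 20 min at RT, polarization reported peptide displacement across a qHTS concentration series.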
# Rango complex inh: inhibitors of Rango-importin beta complex formation; Rango CFP/YFP FRET sensor + importin beta, 45 min; Potency, µM (top dose mostly 92.2 µM), inactives show at the highest dose inhibition of complex formation; actives 0.031% (n = 340,000); AID 540263;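 note: 0% = DMSO wells and 100% = buffer wells lacking importin beta; nearly all actives have a fitted effect of over 15% in size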
#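 Inhibition scored from the CFP 486 nm/YFP 530 nm FRET ratio 45 min after adding 0.125 microM importin beta to 50 nM Rango biosensor preincubated 5 min with compound (room temperature, PBS with DTT, Tween-20, BSA). No-importin wells as positive control.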
# ALOX12 inh: blocks human arachidonate 12S-lipoxygenase; P18054; purified 12hLO, xylenol orange hydroperoxide absorbance; Potency, µM (top dose mostly 108 µM), without a hit: at the top dose activity change, negative = inhibition, hits mostly inhibitors; actives 1.1% (n = 580,000); AID 1671190; active = well fitted curve in the direction sought with a large enough effect; inconclusive = small, poorly fitted or top-dose-only effect, or another doubt; inactive = no such curve, though single readings can be large; an effect the other way counts as inactive or inconclusive; note: % is set by controls: 0 for no effect and ±100 for the full control effect
#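 Purified human 12hLO at 150 nM in 25 mM Hepes, 0.01% Triton X-100, pH 7.0, preincubated 15 min at room temperature with compound. Reaction started with 40 uM arachidonic acid, 30 min at room temperature. Hydroperoxide measured by Fe-xylenol orange, 573/405 nm absorbance ratio.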
# TDP1 block: TDP1 (human) enzyme inhibition | AID 485290 | Q9NUW8 | actives 0.28% (n = 350,000) | recombinant TDP1, AlphaScreen DNA substrate cleavage | Potency, µM (series often up to 130 µM), without a hit: at the highest dose activity change, negative = inhibition, usual class: inhibitors; active = well fitted curve in the direction sought with a large enough effect; inconclusive = small, poorly fitted or top-dose-only effect, or another doubt; inactive = no such curve, though single readings can be large; an effect the other way counts as inactive or inconclusive; note: % is set by controls: 0 for no effect and ±100 for the full control effect; nearly all actives have a fitted effect of over 40% in size
#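 E. coli-derived human Tdp1, 1 nM final. Cpd preinc 15 min RT; substrate 15 nM final, 5 min RT; AS bead mix 10 ug/ml final, 10 min RT. Signal loss = tyrosine-FITC cleavage. No-enzyme wells = max signal.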
# Active calls of the source: *; ? = inconclusive; / = no result given. Unless noted, calls come from the whole dose curve. Potency is the fitted concentration of half-maximal effect.
# Key to letters: A = Rango release inh; B = ClpP mod; C = TSG101-PTAP inh; D = Rango complex inh; E = ALOX12 inh; F = TDP1 block
CCC1(CC)Cc2ccccc2-c2nc(NCCO)[nH]c(=O)c21
  A = 9%	B = 6.3µM*	C = -1%	D = 4%	E = ?	F = 2%

O=c1[nH]c(NCCO)nc2c1C1(CCCCC1)Cc1ccccc1-2
  A = 3%	B = 32µM*	C = -2%	D = 0%	E = ?	F = 9%

Cc1cccc(OCCOC(=O)c2n[nH]c(=O)c3ccccc23)c1
  A = /	B = /	C = /	D = /	E = -7%	F = /

O=C(NCCc1csc(-c2cnccn2)n1)C1CC2(CCNCC2)CN1 (stereo not drawn)
  A = /	B = /	C = /	D = /	E = 109%	F = /

CSC(C)C(=O)N(C)Cc1ccsc1 (stereo not drawn)
  A = /	B = /	C = /	D = /	E = 54%	F = /

Cc1cc(F)ccc1NC(=O)C1CCN(c2cc(C(F)(F)F)ncn2)CC1
  A = /	B = /	C = /	D = /	E = -2%	F = /

Cc1ccc(CNc2cnccn2)cc1
  A = -1%	B = 14µM*	C = -5%	D = -4%	E = 4%	F = -3%

c1ccc(CNc2cnccn2)cc1
  A = -4%	B = 3.2µM*	C = -1%	D = 3%	E = 28%	F = 0%

CCCS(=O)(=O)N1CC(Oc2ccccc2-c2noc(C)n2)C1
  A = /	B = /	C = /	D = /	E = 11%	F = /

Cc1ccc(S(=O)(=O)Nc2nc(C)c(NC(=O)OCCCl)s2)cc1
  A = -3%	B = 1%	C = -1%	D = -1%	E = ?	F = 4%

Cc1ccc(S(=O)(=O)Nc2nc(C)c(NC(=O)Nc3ccc(Cl)cc3Cl)s2)cc1
  A = 4%	B = -3%	C = -2%	D = -1%	E = 2µM*	F = 0%

COc1ccc(NC(=O)Nc2sc(NS(=O)(=O)c3ccccc3)nc2C)cc1
  A = -5%	B = /	C = -7%	D = 1%	E = 22µM*	F = 5%

COCc1nc(C2CCN(C(=O)NCC(C)C)C2)no1 (stereo not drawn)
  A = /	B = /	C = /	D = /	E = 52%	F = /

Cc1c(-n2c(SCC(=O)O)nnc2-c2ccccc2Cl)c(=O)n(-c2ccccc2)n1C
  A = -1%	B = 35µM*	C = 1%	D = 1%	E = 0%	F = 4%

COc1ccc(-c2nnc3n2N(C(C)=O)C(c2ccc(OC(F)F)cc2)=C(C(C)=O)S3)cc1
  A = /	B = /	C = /	D = /	E = -29%	F = /

# Carrying on.
# Key to letters: A = Rango release inh; B = ClpP mod; C = TSG101-PTAP inh; D = Rango complex inh; E = ALOX12 inh; F = TDP1 block
Cc1ccc(C(=O)OCC(=O)c2c[nH]c3ccccc23)s1
  A = /	B = /	C = /	D = /	E = 10%	F = /

Fc1ccc(/C=N/Nc2ccc3ccccc3c2)c(F)c1
  A = /	B = /	C = /	D = /	E = 2.5µM*	F = /

Oc1ccc(/C=N/Nc2ccc3ccccc3c2)c(O)c1
  A = -22%	B = 0%	C = 2%	D = ?	E = -24%	F = 9%

Fc1ccc(Br)cc1/C=N/Nc1c(Cl)cc(Cl)cc1Cl
  A = /	B = /	C = /	D = /	E = 18µM*	F = /

O=C(N/N=C/c1ccc(Cl)cc1Cl)c1cccc(F)c1
  A = 2%	B = -3%	C = -4%	D = -1%	E = 13%	F = -1%

Fc1ccc(/C=N/Nc2c(Cl)cc(Cl)cc2Cl)c(F)c1
  A = /	B = /	C = /	D = /	E = 40µM*	F = /

CCC(C)N(Cc1ccccc1)C(=O)CCc1cccs1 (stereo not drawn)
  A = /	B = /	C = /	D = /	E = 41%	F = /

CCCOc1cccc(C(=O)Nc2scc(-c3ccc(F)cc3)c2C(=O)OC)c1
  A = /	B = /	C = /	D = /	E = 10%	F = /

CCOc1ccccc1C1NC(=O)N(CC(=O)Nc2ccccc2OC)C2=C1C(=O)OC2 (stereo not drawn)
  A = /	B = /	C = /	D = /	E = -6%	F = /

Cc1cccc(C(=O)Nc2ccc(C3(C(=O)NCCC(C)C)CCCCC3)cc2)c1
  A = /	B = /	C = /	D = /	E = 7.9µM*	F = /

COc1cccc(Cn2c(-c3nonc3NC(C)=O)nc3ccccc32)c1
  A = /	B = -19%	C = /	D = /	E = -25%	F = 5%

CC(=O)Nc1nonc1-c1nc2ccccc2n1N(C(C)=O)C(C)=O
  A = -8%	B = 28µM*	C = -6%	D = 0%	E = -10%	F = -1%

CCC(=O)Nc1nonc1-c1nc2ccccc2n1CC(C)C
  A = 11%	B = 0%	C = -12%	D = 1%	E = -3%	F = 1%

CC(=O)Nc1nonc1-c1nc2ccccc2n1Cc1ccccc1Br
  A = /	B = 25µM*	C = /	D = /	E = -7%	F = 7%

COc1cccc(CN2CC[C@@](O)(C3CC3)[C@H](C)C2)c1OC
  A = /	B = /	C = /	D = /	E = 1%	F = /

# The listing continues:
# Key to letters: A = Rango release inh; B = ClpP mod; C = TSG101-PTAP inh; D = Rango complex inh; E = ALOX12 inh; F = TDP1 block
COc1ccc(COCC(O)CNC(=O)CC(C)C)cc1 (stereo not drawn)
  A = /	B = /	C = /	D = /	E = -49%	F = /

CCCOC(=O)c1ccc(Oc2c(C)oc3cc(OC(=O)C(C)C)ccc3c2=O)cc1
  A = /	B = /	C = /	D = /	E = -1%	F = /

Oc1c(I)cc(Cl)c2cccnc12
  A = 1%	B = 1%	C = -12%	D = 6%	E = 11µM*	F = 11%

CC1CN(C(=O)c2cc3c(=O)n4ccccc4nc3s2)CC(C)O1 (stereo not drawn)
  A = -13%	B = 18µM*	C = -4%	D = ?	E = -8%	F = 9%

CC1CC(C)CN(C(=O)c2cc3c(=O)n4ccccc4nc3s2)C1 (stereo not drawn)
  A = -4%	B = /	C = -3%	D = ?	E = -15%	F = 4%

CCN(CC)CCNC(=O)CCC(=O)O
  A = /	B = /	C = /	D = /	E = 3%	F = /

CCOc1ccccc1CN1CCC2(CCN(Cc3ccc(F)cc3)CC2)Oc2ccccc21
  A = /	B = /	C = /	D = /	E = 32µM*	F = /

C=C(C)C(=O)Oc1ccc(N=Nc2ccc(C)cc2)ccc1=O
  A = -15%	B = -1%	C = -5%	D = -2%	E = 22µM*	F = /

CC(=O)c1ccc(N=Nc2ccc(C)cc2)cc1
  A = 12%	B = /	C = -3%	D = 0%	E = 20%	F = 8%

O=C(N/N=C/c1ccncc1)c1cc2ccccc2o1
  A = -5%	B = /	C = -2%	D = -1%	E = 3%	F = 5%

O=C(N/N=C/c1cc(Br)c(Br)o1)c1cc2ccccc2o1
  A = 16%	B = -15%	C = 10%	D = 1%	E = -7%	F = 50µM*

CCC(O)c1cc2n(n1)CCN(c1ncc(F)c(N3CCOCC3)n1)C2 (stereo not drawn)
  A = /	B = /	C = /	D = /	E = 19%	F = /

COc1cccc2sc(NNC(=O)C3=COCCO3)nc12
  A = ?	B = 35µM*	C = -1%	D = -5%	E = 2%	F = 8%

CCOc1ccc(Nc2nc(N)nc(CN(C)C3CCCCC3)n2)cc1
  A = 1%	B = 2%	C = 1%	D = 58µM*	E = 13%	F = -3%

COc1ccc(Nc2nc(N)nc(COc3ccc(OC)cc3)n2)cc1
  A = 3%	B = 8%	C = -1%	D = -4%	E = -1%	F = 7%

# The results go on.
# Key to letters: A = Rango release inh; B = ClpP mod; C = TSG101-PTAP inh; D = Rango complex inh; E = ALOX12 inh; F = TDP1 block
Cc1nc(NC(=O)CSc2nccn2C)sc1C(=O)N(C)C
  A = 13%	B = 2%	C = -1%	D = -1%	E = 18µM*	F = 0%

Cc1nnc(NC(=O)CSc2nccn2C)s1
  A = ?	B = -1%	C = -7%	D = ?	E = -5%	F = 5%

Cc1ccc(SC2=C(N(C)C)C(=O)c3ccccc3C2=O)cc1
  A = -2%	B = 1%	C = -4%	D = 1%	E = 10µM*	F = /

CCC(=O)Oc1ccc2c(c1)O/C(=C\c1ccco1)C2=O
  A = ?	B = /	C = ?	D = ?	E = 25µM*	F = 0%

CCN(CC)C(=O)Oc1ccc2c(c1)O/C(=C\c1ccco1)C2=O
  A = ?	B = /	C = 1%	D = ?	E = ?	F = /

O=C(CSc1nc(NS(=O)(=O)c2ccccc2)cc(=O)[nH]1)Nc1cccc(C(F)(F)F)c1
  A = 12%	B = /	C = -2%	D = -2%	E = -13%	F = 1%

O=C(CSc1nc(NS(=O)(=O)c2ccccc2)cc(=O)[nH]1)Nc1ccc(F)cc1
  A = -9%	B = 0%	C = -4%	D = -3%	E = 0%	F = 28µM*

# Four compounds already listed, ordered by length of the SMILES, descending:
# Key to letters: A = Rango release inh; B = ClpP mod; C = TSG101-PTAP inh; D = Rango complex inh; E = ALOX12 inh; F = TDP1 block
O=C(CSc1nc(NS(=O)(=O)c2ccccc2)cc(=O)[nH]1)Nc1cccc(C(F)(F)F)c1
  A = 12%	B = /	C = -2%	D = -2%	E = -13%	F = 1%

O=C(CSc1nc(NS(=O)(=O)c2ccccc2)cc(=O)[nH]1)Nc1ccc(F)cc1
  A = -9%	B = 0%	C = -4%	D = -3%	E = 0%	F = 28µM*

CCN(CC)C(=O)Oc1ccc2c(c1)O/C(=C\c1ccco1)C2=O
  A = ?	B = /	C = 1%	D = ?	E = ?	F = /

Cc1nc(NC(=O)CSc2nccn2C)sc1C(=O)N(C)C
  A = 13%	B = 2%	C = -1%	D = -1%	E = 18µM*	F = 0%

# From PubChem
